Hits are enriched below; roughly 2.8% of the tested compounds scored in any of these assays.
Yeast UUG start-1 – modulators of start codon recognition fidelity in yeast. S. cerevisiae UUG-firefly luciferase reporter, luminescence/redox ratio. activity score, % at 18.7 µM. 350,000 tested, 0.13% active;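 active = replicate mean at a twofold rise or more, about +100% in these data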;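 note: firefly luciferase made from a UUG start codon reports start codon fidelity; reporter light over untreated wells divided by growth signal over untreated wells; some hits fall short of that in this replicate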
MITF TRPM1 HTS – activators of MITF-driven TRPM1 promoter activity in SK-MEL-5 cells; SK-MEL-5 TRPM1-promoter luciferase, 24 h; % of positive control, neutral wells = 0; activation, % at 12.5 µM; 0.75% of 300,000 active;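 active = mean activation of at least 80% with every replicate also reaching 80%; inconclusive = mean reaches 80% but some replicate falls short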;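 note: 0% = neutral control wells and 100% = parthenolide positive control wells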
PglD DTNB – blocks C. jejuni PglD acetyltransferase activity | inhibition, % at 12.5 µM | 0.098% of 360,000 active | purified PglD enzyme, DTNB colorimetric CoA detection; in the data active = inhibition above about 16%, passing the limit was not always enough; inconclusive = no clear call, values can overlap the other calls
esBAF inh – inhibitors of esBAF chromatin remodeling in mouse ES cells; Bmi1-luciferase knock-in reporter, 24 h; 100% = twice the neutral-well signal; 2% of 350,000 active; reporter increase, % at 12.5 µM; in the data active = activation above about 40%; inconclusive = no clear call, values can overlap the other calls;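 note: 0% = median of the plate's neutral control wells and 100% = double that signal; a rise in the Bmi1 reporter signal indicates esBAF inhibition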
Wnt act – activators of Wnt/beta-catenin signaling | Wnt/beta-catenin reporter cell assay, activator, plate reader | 1.2% of 300,000 active | activation, % at 9.35 µM; in the data active = activation above about 30%, passing the limit was not always enough; inconclusive = no clear call, values can overlap the other calls;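 note: 0% = neutral control wells and 100% = positive control wells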
miR-122 sensor – inhibitors of miR-122 in Huh7 cells | Huh7 miR-122 Renilla luciferase sensor, 48 h; neutral wells = 0, positive control = 100 | AID 602342 | 0.3% of 340,000 active | activation (reporter increase), % at 12.5 µM;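 active = mean replicate activation score at least 90 and every replicate individually at or above 90; inconclusive = only one of the two criteria met; inactive = neither criterion met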;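 note: higher luciferase means less miR-122 activity so hits act as miR-122 inhibitors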
Yeast UUG start-2 – yeast start codon fidelity modulation; shares compounds with Yeast UUG start-1; S. cerevisiae UUG-start firefly luciferase, luminescence, 4 h; 100% means double the DMSO signal; activation, % at 38 µM; 540 tested, under 10 active; AID 652061;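 active = signal increase whose fitted curve reaches an absolute level of 40 at a concentration under 10 µM; inactive = activity opposite to the expected increase, or the rest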
Starred values were filed as active, the others as inactive; i = inactive; ? = inconclusive; nt = no result given; [ ] = remark or other dose.

| cpd | mol | Yeast UUG start-1 | MITF TRPM1 HTS | PglD DTNB | esBAF inh |
| --- | --- | --- | --- | --- | --- |
| 1 | O=Cc1cc([N+](=O)[O-])ccc1N1CCN(Cc2ccc3c(c2)OCO3)CC1 | -6 | -18 | -6 | 0 |
| 2 | O=C1Nc2ccc([N+](=O)[O-])cc2OC1CCN1CCN(Cc2ccc3c(c2)OCO3)CC1 (centres undefined) | 611* | -2 | 2 | 0 |
| 3 | O=C(Nc1ccccc1Cl)N1[C@@H]2CNc3ccccc3[C@@H]2[C@@H]1CO | -10 | nt | -2 | -1 |
| 4 | CCCc1[nH]nc2c1C(Cc1ccccc1)C(C#N)=C(N)O2 (centres undefined) | 501* | -13 | 2 | -6 |
| 5 | CN(N=Nc1ccccc1C(=O)O)C1CCCCC1 | 169* | nt | 2 | -1 |
| 6 | CN(C(=O)c1ccccc1Cl)C1CCCCC1 | -13 | 6 | -1 | 30 |
| 7 | COc1ccc(NC(=O)Nc2ccc3c(c2)CC(=O)N([C@H](C)CO)C[C@@H](C)[C@@H](CN(C)Cc2ccc(Cl)c(Cl)c2)O3)cc1 | 4 | nt | 1 | -7 |
| 8 | CN(C)C(=O)C[C@@H]1C[C@@H]2c3cc(NC(=O)Nc4ccccc4F)ccc3O[C@@H]2[C@@H](CO)O1 | 127* | nt | -5 | 3 |

| cpd | Wnt act | miR-122 sensor | Yeast UUG start-2 |
| --- | --- | --- | --- |
| 1 | 0 | -3 | nt |
| 2 | 0 | 153* | 6 |
| 3 | nt | -11[16.7 µM] | nt |
| 4 | -2 | -1 | 10 |
| 5 | 38* | -14 | -5 |
| 6 | -2 | -30 | nt |
| 7 | nt | 17[16.7 µM] | nt |
| 8 | nt | 7[16.7 µM] | i |

The list goes on:
| cpd | mol | Yeast UUG start-1 | MITF TRPM1 HTS | PglD DTNB | esBAF inh |
| --- | --- | --- | --- | --- | --- |
| 9 | CN(C)CC(=O)Nc1ccc2c(c1)[C@@H]1C[C@@H](CC(=O)NCc3cccc(F)c3)O[C@H](CO)[C@@H]1O2 | 5 | nt | 1 | -2 |
| 10 | CN(C)C(=O)C[C@H]1C[C@H]2c3cc(NC(=O)Nc4ccccc4F)ccc3O[C@H]2[C@H](CO)O1 | -1 | nt | -2 | 3 |
| 11 | CN(C)C(=O)C[C@@H]1C[C@H]2c3cc(NC(=O)Nc4ccccc4F)ccc3O[C@H]2[C@H](CO)O1 | 47* | nt | 0 | 0 |
| 12 | CN(C)CC(=O)Nc1ccc2c(c1)[C@@H]1C[C@@H](CC(=O)NCc3cccc(F)c3)O[C@@H](CO)[C@@H]1O2 | 55* | nt | -1 | 1 |
| 13 | CN(C)C(=O)C[C@H]1C[C@@H]2c3cc(NC(=O)Nc4ccccc4F)ccc3O[C@@H]2[C@@H](CO)O1 | -1 | nt | -3 | 3 |
| 14 | O=C(Cc1c(F)cccc1Cl)Nc1ccccc1-c1ccccc1 | 540* | 5 | 5 | -10 |
| 15 | O=C(Cc1ccccc1F)Nc1ccccc1-c1ccccc1 | nt | 29 | nt | nt |
| 16 | Cc1cc[n+](C2=C([O-])c3ccccc3C(=O)/C2=N\S(=O)(=O)c2cccs2)cc1C | 446* | -18 | -2 | 9 |

| cpd | Wnt act | miR-122 sensor | Yeast UUG start-2 |
| --- | --- | --- | --- |
| 9 | nt | 3[16.7 µM] | nt |
| 10 | nt | 3[16.7 µM] | nt |
| 11 | nt | 6[16.7 µM] | i |
| 12 | nt | 2[16.7 µM] | i |
| 13 | nt | -7[16.7 µM] | nt |
| 14 | 0 | 2 | -7 |
| 15 | 3 | nt | nt |
| 16 | 0 | 3 | 0 |

Two of the compounds above, in transposed form:
#6 CN(C(=O)c1ccccc1Cl)C1CCCCC1
#7 COc1ccc(NC(=O)Nc2ccc3c(c2)CC(=O)N([C@H](C)CO)C[C@@H](C)[C@@H](CN(C)Cc2ccc(Cl)c(Cl)c2)O3)cc1

assay / compound | 6 | 7
Yeast UUG start-1 | -13 | 4
MITF TRPM1 HTS | 6 | nt
PglD DTNB | -1 | 1
esBAF inh | 30 | -7
Wnt act | -2 | nt
miR-122 sensor | -30 | 17[16.7 µM]
Yeast UUG start-2 | nt | nt

A few values from the results shown.
PglD DTNB, Cc1cc[n+](C2=C([O-])c3ccccc3C(=O)/C2=N\S(=O)(=O)c2cccs2)cc1C is entered as -2
MITF TRPM1 HTS, O=C(Cc1c(F)cccc1Cl)Nc1ccccc1-c1ccccc1 is entered as 5

Next entries follow:
| cpd | mol | Yeast UUG start-1 | MITF TRPM1 HTS | PglD DTNB | esBAF inh |
| --- | --- | --- | --- | --- | --- |
| 17 | Cc1cc(C)c[n+](C2=C([O-])c3ccccc3C(=O)/C2=N\S(=O)(=O)c2cccs2)c1 | nt | -104 | nt | nt |
| 18 | CNC[C@@H]1OCCCC[C@H](C)Oc2ccc(N)cc2C(=O)N([C@@H](C)CO)C[C@H]1C | 5 | nt | 4 | 1 |
| 19 | Cc1nn(CC(=O)N2CCN(c3ccccc3)CC2)c(=O)c2ccccc12 | -24 | ? | -4 | -4 |
| 20 | COc1ccc(OC)c(NC(=O)Cn2cc(C(=O)c3ccco3)c3ccccc32)c1 | 134* | 4 | 2 | 1 |
| 21 | COc1ccc(OC)c(NC(=O)Cc2nn(C)c(=O)c3ccccc23)c1 | -11 | -3 | -1 | -1 |
| 22 | COc1ccc(N2CCN(C(=O)Cc3nn(C)c(=O)c4ccccc34)CC2)cc1 | -20 | nt | 2 | -5 |
| 23 | C[C@@H]1CN([C@H](C)CO)C(=O)c2cc(NC(=O)Cn3cnnn3)ccc2O[C@@H]1CN(C)Cc1ccncc1 | -16 | nt | 5 | -1 |
| 24 | CCCC(=O)Nc1ccc2c(c1)C(=O)N(C)C[C@@H](OC)[C@H](C)CN(CCC(F)(F)F)[C@@H](C)CO2 | nt | nt | 6 | -4 |

| cpd | Wnt act | miR-122 sensor | Yeast UUG start-2 |
| --- | --- | --- | --- |
| 17 | -2 | nt | nt |
| 18 | nt | -5[16.7 µM] | nt |
| 19 | -1 | 0 | 1 |
| 20 | -12 | 6 | 13 |
| 21 | nt | 5 | 10 |
| 22 | nt | -3 | 10 |
| 23 | nt | -2[16.7 µM] | nt |
| 24 | nt | -4[16.7 µM] | nt |

(list continues)
| cpd | mol | Yeast UUG start-1 | MITF TRPM1 HTS | PglD DTNB | esBAF inh |
| --- | --- | --- | --- | --- | --- |
| 25 | C[C@@H]1CN([C@@H](C)CO)C(=O)c2cc(-c3ccccc3)cnc2O[C@H]1CN(C)C(=O)C1CCCCC1 | 10 | nt | 0 | 0 |
| 26 | Cn1nc(CC(=O)Nc2cccc3ncccc23)c2ccccc2c1=O | -13 | -2 | 0 | -48 |
| 27 | C[C@H]1CCCCO[C@H](CN(C)C(=O)Cc2ccccc2)[C@@H](C)CN([C@@H](C)CO)C(=O)c2cc(NS(=O)(=O)c3cn(C)cn3)ccc2O1 | -5 | nt | -4 | 5 |
| 28 | CO[C@H](CN(C)C(=O)c1ccc2c(c1)OCO2)[C@@H](C)CN([C@@H](C)CO)S(=O)(=O)c1ccc(C)cc1 | nt | nt | 3 | 0 |
| 29 | O=C(CSc1nnc2c(n1)[nH]c1ccccc12)OCc1ccccc1 | 410* | nt | -3 | 3 |
| 30 | CCOC(=O)CC(=O)CSc1nnc2c(n1)[nH]c1ccccc12 | nt | 24 | nt | nt |
| 31 | COC(=O)c1c2oc(c1C(=O)OC)C(=O)N[C@@H](Cc1ccccc1)Cn1cc(nn1)CNC(=O)[C@@H](Cc1ccccc1)NC(=O)N[C@@H](CO)CC2 | 116* | nt | -2 | nt |
| 32 | COc1ccc(CN(C)C[C@H]2Oc3ccc(NS(=O)(=O)c4cccs4)cc3CC(=O)N([C@@H](C)CO)C[C@@H]2C)cc1 | nt | nt | nt | 3 |

| cpd | Wnt act | miR-122 sensor | Yeast UUG start-2 |
| --- | --- | --- | --- |
| 25 | nt | -4[16.7 µM] | nt |
| 26 | 0 | 10 | -4 |
| 27 | nt | 1[16.7 µM] | nt |
| 28 | nt | nt | nt |
| 29 | 0 | -5 | 1 |
| 30 | 10 | nt | nt |
| 31 | nt | nt | i |
| 32 | nt | -5[16.7 µM] | nt |

The list continues.
| cpd | mol | Yeast UUG start-1 | MITF TRPM1 HTS | PglD DTNB | esBAF inh |
| --- | --- | --- | --- | --- | --- |
| 33 | O=C1c2ccccc2C(=O)c2c(Nc3ccc(CCO)cc3)ccc(O)c21 | active | -16 | 2 | -8 |
| 34 | Cc1cc(Cl)ccc1NC(=S)NCCC(c1ccccc1)c1ccccc1 | 112* | 13 | 12 | nt |
| 35 | Cc1c(Cl)cccc1NC(=S)NCCC(c1ccccc1)c1ccccc1 | -7 | -4 | -9 | nt |
| 36 | O=C(O)Cc1csc(NC(=O)c2ccco2)n1 | 373* | nt | 0 | -2 |
| 37 | O=C(Cc1csc(NC(=O)c2ccccc2)n1)NO | -14 | -6 | -4 | 4 |
| 38 | COc1ccccc1OCCNC(=O)c1ccc(NC(=O)CC2SC(N3CCCC3)=NC2=O)cc1 (centres undefined) | -1 | nt | 3 | 5 |
| 39 | COc1ccccc1CCNC(=O)c1ccc(NC(=O)CC2SC(N3CCCCC3)=NC2=O)cc1 (centres undefined) | 117* | -13 | nt | 1 |
| 40 | O=C(Cc1ccccc1)N1C[C@H]2[C@@H](c3ccccc31)[C@@H](CO)N2C(=O)C1CCOCC1 | 116* | nt | -2 | 10 |
| 41 | C[C@@H]1CCCCO[C@@H](CN(C)C(=O)NC2CCCCC2)[C@@H](C)CN([C@@H](C)CO)C(=O)c2cc(NC(=O)NC3CCCCC3)ccc2O1 | 4 | nt | 0 | 3 |
| 42 | CCN(C[C@H]1[C@@H](c2ccccc2)[C@@H](CO)N1C(C)=O)C(=O)c1ccccn1 | 127* | nt | 0 | 3 |

| cpd | Wnt act | miR-122 sensor | Yeast UUG start-2 |
| --- | --- | --- | --- |
| 33 | 3 | 0 | -24 |
| 34 | nt | 14 | 7 |
| 35 | nt | 8 | nt |
| 36 | 0 | -3 | 10 |
| 37 | -2 | -3 | nt |
| 38 | -1 | 5 | nt |
| 39 | -1 | -4 | 7 |
| 40 | nt | 4[16.7 µM] | i |
| 41 | nt | 11[16.7 µM] | nt |
| 42 | nt | -14[16.7 µM] | i |

Screening results: PubChem BioAssay, Broad Institute
